Patent publication US6913767B1, “Compositions for microencapsulation of antigens for use as vaccines” (priority 1993, dated 2005)

Assay: Stability (intact fraction) of QS21
Type: physicochemical

QS21
degradation rate of QS21 at pH 7.4 relative to pH 5.5 (40° C.): twenty fold greater
intact QS21 remaining (74 days at pH 5.5 and 40° C.): less than 50%
